From PMC9307851 (Nature Communications, 2022)

Molecular target: T1, DNMT3B MTase domain ([…]), wild type (human)
T1 construct: DNMT3B (DNA methyltransferase 3B), human, MTase domain […]; Crystallised with SAH; also called DNMT3B methyltransferase domain; WT DNMT3B MTase domain; source: E. coli BL21 DE3 (RIL), purified (Ni-NTA, TEV cleavage, Heparin HP, Superdex 200); not shown: His6, N-terminal, cleaved; MBP, N-terminal, cleaved
Test: SEC; DNMT3B protein mixed with separately purified tag-free DNMT3L (178-386), to compare assembly stability
Settings: both partners purified

binding result: binds
B1: DNMT3L (residues 178-386), made alone from a GST fusion (domain or fragment, human, UniProt Q9UJW3 178-386, looked up)
chain: MFETVPVWRRQPVRVLSLFEDIKKELTSLGFLESGSDPGQLKHVVDVTDTVRKDVEEWGPFDLVYGATPPLGHTCDRPPSWYLFQFHRLLQYARPKPGSPRPFFWMFVDNLVLNKEDLDVASRFLEMEPVTIPDVHGGSLQNAVRVWSNIPAIRSRHWALVSEEELSLLAQNKQSSKLAAKWPTKLVKNCFLPLREYFKYFSTELTSSL
notes: DNMT3L, human, GenBank BC002560, residues 178-386; also called DNMT3L protein; tag-free DNMT3L; source: E. coli BL21 DE3 (RIL), purified (Glutathione Sepharose, 3C PreScission cleavage, GSTrap FF, Superdex 200); not shown: GST, N-terminal, cleaved
